miR122 inh: blocks miR-122 activity in Huh7 sensor cells | Huh7 miR-122 Renilla luciferase sensor, 48 h; neutral wells = 0, positive control = 100 | activation (reporter increase), % at 12.5 µM | actives 0.3% (n = 340,000) | AID 602342;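 active = mean replicate activation score at least 90 and every replicate individually at or above 90; inconclusive = only one of the two criteria met; inactive = neither criterion met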;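 note: higher luciferase means less miR-122 activity so hits act as miR-122 inhibitors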
Wnt act: activates Wnt/beta-catenin signaling in a reporter cell assay; AID 743398; actives 1.2% (n = 300,000); activation, % at 9.35 µM; activator, plate reader; in the data active = activation above about 30%, passing the limit was not always enough; inconclusive = no clear call, values can overlap the other calls;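 note: 0% = neutral control wells and 100% = positive control wells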
esBAF inh: inhibitors of esBAF chromatin remodeling in mouse ES cells | reporter increase, % at 12.5 µM | Bmi1-luciferase knock-in reporter, 24 h; 100% = twice the neutral-well signal | actives 2% (n = 350,000); in the data active = activation above about 40%; inconclusive = no clear call, values can overlap the other calls;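 note: 0% = median of the plate's neutral control wells and 100% = double that signal; a rise in the Bmi1 reporter signal indicates esBAF inhibition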
PglD inh: blocks C. jejuni PglD acetyltransferase activity; purified PglD enzyme, DTNB colorimetric CoA detection; actives 0.098% (n = 360,000); inhibition, % at 12.5 µM; AID 602405; in the data active = inhibition above about 16%, passing the limit was not always enough; inconclusive = no clear call, values can overlap the other calls
UUG fidelity: modulators of start codon recognition fidelity in yeast | S. cerevisiae UUG-firefly luciferase reporter, luminescence/redox ratio | activity score, % at 18.7 µM | 350,000 tested, 0.13% active;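 active = replicate mean at a twofold rise or more, about +100% in these data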;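 also: firefly luciferase made from a UUG start codon reports start codon fidelity; reporter light over untreated wells divided by growth signal over untreated wells; some hits fall short of that in this replicate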
MITF act: MITF TRPM1 promoter activation in melanoma cells. SK-MEL-5 TRPM1-promoter luciferase, 24 h; % of positive control, neutral wells = 0. activation, % at 12.5 µM. actives 0.75% (n = 300,000). AID 588334;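 active = mean activation of at least 80% with every replicate also reaching 80%; inconclusive = mean reaches 80% but some replicate falls short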;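 note: 0% = neutral control wells and 100% = parthenolide positive control wells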
An asterisk follows results filed as active; ? = inconclusive; / = not tested or not shown; [ ] = another dose, or the depositor's remark. Hits are enriched below; roughly 2.8% of the tested compounds scored in any of these assays.

A first look (6 entries):
SMILES	miR122 inh	Wnt act	esBAF inh	PglD inh	UUG fidelity	MITF act
CC(C)CC#Cc1cnc2c(c1)C(=O)N([C@H](C)CO)C[C@@H](C)[C@@H](CN(C)C(=O)c1cccc(F)c1)O2	1.0[16.7 µM]	/	2.2	14.2	/	/
C[C@@H]1CN([C@H](C)CO)C(=O)c2cccc(NS(=O)(=O)c3cn(C)cn3)c2O[C@@H]1CN(C)Cc1ccc(Cl)c(Cl)c1	-0.4[16.7 µM]	/	-0.5	4.0	1.5	/
COc1ccc(NC(=O)Nc2ccc3c(c2)C(=O)N([C@H](C)CO)C[C@H](C)[C@@H](CN(C)C(=O)Nc2ccc(F)cc2)OCCCC[C@@H](C)O3)cc1	13.7[16.7 µM]	/	-0.7	1.1	15.5	/
C[C@@H]1CN([C@H](C)CO)C(=O)c2cccc(NC(=O)C3CCOCC3)c2O[C@H]1CN(C)CC1CC1	-0.6[16.7 µM]	/	1.4	-3.7	-10.5	/
Cc1cccc2nc(CSc3ccc(Cl)cc3)cn12	-6.9	13.2	75.7*	3.1	-12.9	101.1*
Clc1ccc2nc(CSc3nc4ccccc4o3)cn2c1	7.6	58.5*	7.1	/	-21.7	/

This part in full, from the first entry:
SMILES	miR122 inh	Wnt act	esBAF inh	PglD inh	UUG fidelity	MITF act
CC(C)CC#Cc1cnc2c(c1)C(=O)N([C@H](C)CO)C[C@@H](C)[C@@H](CN(C)C(=O)c1cccc(F)c1)O2	1.0[16.7 µM]	/	2.2	14.2	/	/
C[C@@H]1CN([C@H](C)CO)C(=O)c2cccc(NS(=O)(=O)c3cn(C)cn3)c2O[C@@H]1CN(C)Cc1ccc(Cl)c(Cl)c1	-0.4[16.7 µM]	/	-0.5	4.0	1.5	/
COc1ccc(NC(=O)Nc2ccc3c(c2)C(=O)N([C@H](C)CO)C[C@H](C)[C@@H](CN(C)C(=O)Nc2ccc(F)cc2)OCCCC[C@@H](C)O3)cc1	13.7[16.7 µM]	/	-0.7	1.1	15.5	/
C[C@@H]1CN([C@H](C)CO)C(=O)c2cccc(NC(=O)C3CCOCC3)c2O[C@H]1CN(C)CC1CC1	-0.6[16.7 µM]	/	1.4	-3.7	-10.5	/
Cc1cccc2nc(CSc3ccc(Cl)cc3)cn12	-6.9	13.2	75.7*	3.1	-12.9	101.1*
Clc1ccc2nc(CSc3nc4ccccc4o3)cn2c1	7.6	58.5*	7.1	/	-21.7	/
C=CCOc1ccc(/C=C2\SC(=S)N(N3CCOCC3)C2=O)cc1	-2.1	42.4*	/	-2.0	0.4	/
O=C1/C(=C/c2ccncc2)SC(=S)N1N1CCOCC1	2.6	2.7	/	0.1	-19.9	/
Cc1noc(C)c1NC(=O)Nc1ccc2c(c1)C(=O)N([C@H](C)CO)C[C@H](C)[C@H](CN(C)C(=O)Nc1ccc3c(c1)OCO3)OCCCC[C@H](C)O2	2.9[16.7 µM]	/	-1.2	-0.5	-5.4	/
O=C(Nc1cccc(S(=O)(=O)NC2=NCCC2)c1)c1ccccc1	5.9	-2.8	-7.4	-2.5	-13.4	/
Cc1ccc(C)c(-n2ccnc2SCC(=O)Nc2cccc(S(=O)(=O)NC3=NCCC3)c2)c1	10.2	47.3*	-0.8	-3.2	-7.6	-7.6
CN(C)c1cccc(C(=O)Nc2cccc(S(=O)(=O)NC3=NCCC3)c2)c1	4.4	9.4	54.8*	-2.7	-4.7	6.3
C[C@@H]1CN([C@@H](C)CO)C(=O)CCCn2cc(nn2)CO[C@@H]1CN(C)S(=O)(=O)c1ccc(F)cc1	-3.6[16.7 µM]	/	0.6	0.7	3.8	/
CC(C)NC(=O)Nc1cccc2c1O[C@H](CN(C)C)[C@H](C)CN([C@@H](C)CO)C2=O	2.7[16.7 µM]	/	1.5	-1.1	/	/
COc1ccccc1CC(=O)Nc1ccc2c(c1)OC1(CCCC1)O2	1.5	-3.7	51.8*	-3.0	3.4	53.4
COc1ccccc1CC(=O)Nc1ccc(OC)c(OC)c1	/	/	0.9	4.2	-4.0	-4.0
c1ccc(-c2nnsc2Sc2ccccn2)cc1	/	36.2*	53.8*	/	/	47.9
Cc1noc(C)c1NC(=O)Nc1ccc2c(c1)CC(=O)N([C@@H](C)CO)C[C@@H](C)[C@H](CN(C)Cc1ccc(Cl)c(Cl)c1)O2	-3.1[16.7 µM]	/	-1.5	-4.8	17.2	/
C/C(=N\OC(=O)c1ccc(F)cc1)c1sc(-c2ccc(Cl)cc2)nc1C	-4.5	51.0*	?	8.5	-14.1	71.6
C/C(=N\OC(=O)c1ccc(C)cc1)c1sc(C)nc1C	-1.9	/	10.3	4.1	-32.3	23.3
COc1ccc(S(=O)(=O)N(C)C[C@H]2OCCCC[C@H](C)Oc3ccc(NS(=O)(=O)c4ccccc4)cc3C(=O)N([C@@H](C)CO)C[C@H]2C)cc1	-13.7[16.7 µM]	/	-0.9	-1.1	11.1	/
Cc1nc(-c2ccccc2)cc(-c2ccccc2)n1	-5.1	-2.9	3.9	-2.5	-1.1	5.3
c1ccc(-c2ccc3ccccc3n2)cc1	-2.3	46.5*	36.9	2.3	-9.0	/
c1ccc(-c2cccc(-c3ccccc3)n2)cc1	-6.4	7.0	43.6*	-1.2	-2.0	50.9
c1ccc(-c2ccc3ncccc3n2)cc1	-5.0	14.3	31.9	4.3	-17.3	/
c1ccc2nc(-c3ccc(-n4ccnc4)cc3)ccc2c1	6.6	48.5*	13.8	-1.8	-39.6	43.5
CN1CCN(C(=O)C[C@@H]2C=C[C@@H](NC(=O)c3ccc4c(c3)OCO4)[C@@H](CO)O2)CC1	/	/	2.7	2.0	-16.2	/
Cc1noc(C)c1NC(=O)N(C)C[C@H]1Oc2c(NS(=O)(=O)c3ccc(Cl)cc3)cccc2C(=O)N([C@@H](C)CO)C[C@H]1C	-1.0[16.7 µM]	/	-2.3	1.4	20.2	/
CCc1ccc(Nc2nc(C)cc(C)n2)cc1	0.1	7.0	48.6*	-3.8	-16.5	/
O=C(OCc1c(-c2ccccc2)ncc2ccccc12)N1CCOCC1	/	37.3*	56.7*	1.6	-14.5	101.5*
CC(=O)N(c1nnc(-c2cccc(C)c2)s1)C1CCCC1	-1.4	9.1	52.1*	-0.1	1.3	/
COc1ccc(NC(=O)Nc2ccc3c(c2)C(=O)N([C@H](C)CO)C[C@@H](C)[C@H](CN(C)C(=O)NC2CCCCC2)OCCCC[C@@H](C)O3)cc1	-12.1[16.7 µM]	/	20.9	5.0	0.1	/
COCC(=O)N1C[C@@H](C)[C@H](OC)CN(C)C(=O)c2cc(NC(=O)c3ccc(-c4ccccc4)cc3)ccc2OC[C@H]1C	/	/	4.4	2.7	/	/
Cc1nnc(SCC(=O)N(C)CC(=O)Nc2ccc(F)cc2)n1Cc1ccccc1	/	-1.3	/	/	/	-3.9
CN(CC(=O)Nc1ccc(F)cc1)C(=O)CSc1nnc(Cc2ccccc2)o1	/	63.4*	-0.2	-1.4	3.3	-11.6
C[C@@H]1CN([C@@H](C)CO)C(=O)c2cccc(NS(=O)(=O)c3ccc(F)cc3)c2O[C@H]1CN(C)S(=O)(=O)c1cn(C)cn1	4.9[16.7 µM]	/	-0.6	-3.9	4.5	/
CC(C)(C)NC(=O)c1ccc2c(c1)C(=O)N(C1CCCCC1)C2=O	-3.6	0.1	43.3*	3.7	-12.9	45.1
CC(C)CNC(=O)c1ccc2c(c1)C(=O)N(C1CCCCC1)C2=O	4.8	0.7	4.5	-2.0	-3.5	-10.5
O=C(C[C@@H]1C=C[C@H](NC(=O)c2ccc3c(c2)OCO3)[C@@H](CO)O1)NCc1ccc(Cl)cc1	/	/	-2.6	0.5	-0.5	/
CCNC(=S)N/N=C/c1cc(C)n(-c2ccc(Cl)cc2)c1C	/	1.3	/	/	/	86.4*
Cc1cc(/C=N/NC(N)=S)c(C)n1-c1ccc(Cl)c(Cl)c1	/	4.1	/	/	/	-28.6
Cc1c(CC(=O)N[C@H](C(=O)O)C(C)C)c(=O)oc2cc3c(cc12)CCC(C)(C)O3	-3.2	34.7*	61.2*	5.2	-3.9	59.7
Cc1c(CC(=O)NC(C)C)c(=O)oc2cc3c(cc12)CCC(C)(C)O3	/	19.7	49.0*	3.1	-8.2	74.6
CCC(C)NC(=O)Cc1c(C)c2cc3c(cc2oc1=O)OC(C)(C)CC3 (stereo not drawn)	4.8	12.5	67.2*	2.4	-21.0	62.9
CN(C)CC(=O)Nc1ccc2c(c1)[C@@H]1C[C@@H](CC(=O)NCc3ccccc3F)O[C@H](CO)[C@@H]1O2	1.5[16.7 µM]	/	1.4	3.7	-10.2	/
CO[C@@H]1CN(C)C(=O)c2cc(NC(=O)c3ccc(F)cc3)ccc2OC[C@H](C)N(C(=O)CN(C)C)C[C@@H]1C	/	/	0.9	-2.3	-6.8	/
